Measurements published in ChEMBL document CHEMBL1144187, “Pharmacophore modeling and virtual screening for designing potential PLK1 inhibitors” (Bioorg Med Chem Lett, 2008).

Biological target: Serine/threonine-protein kinase PLK1 (Homo sapiens, UniProt P53350)

| IC50 [nM] | SMILES |
| --- | --- |
| 41 | CCN(CC)CCNC(=O)c1c[nH]c2ccc(N/C=c3/s/c(=C(/C#N)C(=O)NCC(F)(F)F)n(CC)c3=O)cc12 |
| 81 | CCOC(=O)/C(C#N)=c1\s/c(=C/Nc2ccc(C(C)=O)cc2)c(=O)n1CC |
| 46 | CCOC(=O)/C(C#N)=c1\s/c(=C/Nc2cccc(C)c2)c(=O)n1CC |
